Literature values as cited in PMC3286593 (Cancer Chemotherapy and Pharmacology, 2011).

Tested on: VEGF receptors (VEGFRs 1–3), platelet-derived growth factor receptors (PDGFRs α and β)
Details: cited from earlier work

CCN(CC)CCNC(=O)c1c(C)[nH]c(/C=C2\C(=O)Nc3ccc(F)cc32)c1C [sunitinib]
Potency inhibiting VEGFRs 1–3, PDGFRs α and β: nanomolar range
